The subject of series [1] is Pseudomonas aeruginosa. Put plainly: Ratio of Kcat to Km for Pseudomonas aeruginosa 166301 beta-lactamase VIM-16.
Series [2] deals with C[C@@H](O)[C@H]1C(=O)N2C(C(=O)O)=C(S[C@@H]3CN[C@H](C(=O)N(C)C)C3)[C@H](C)[C@H]12. Put plainly: (§1) Activity of Pseudomonas aeruginosa COL-1 beta-lactamase VIM-2.
Series [3] deals with C[C@@H](O)[C@H]1C(=O)N2C(C(=O)O)=C(SCCNC=N)C[C@H]12. The description is as §1.
Series [4] concerns C[C@@H](O)[C@H]1C(=O)N2C(C(=O)O)=C(S[C@@H]3CN[C@H](C(=O)N(C)C)C3)[C@H](C)[C@H]12. Put plainly: (§2) Ratio of Kcat to Km for Pseudomonas aeruginosa COL-1 beta-lactamase VIM-2.
Series [5] has as its system C[C@@H](O)[C@H]1C(=O)N2C(C(=O)O)=C(SCCNC=N)C[C@H]12. The description is as §2.
Series [6] deals with Pseudomonas aeruginosa. To be noted: 9551, Urine.

Experimental findings from ChEMBL document CHEMBL1275469, “VIM-15 and VIM-16, two new VIM-2-like metallo-beta-lactamases in Pseudomonas aeruginosa isolates from Bulgaria and Germany” (2008) are described below.

In the case of `CC1(C)S[C@@H]2[C@H](NC(=O)Cc3ccccc3)C(=O)N2[C@H]1C(=O)O`, the kcat/Km – broadly, the second-order rate constant that governs catalysis at low substrate concentration – with Pseudomonas aeruginosa [1] was determined as 510000 M⁻¹ s⁻¹.

Regarding `C[C@@H](O)[C@H]1C(=O)N2C(C(=O)O)=C(S[C@@H]3CN[C@H](C(=O)N(C)C)C3)[C@H](C)[C@H]12` [MEROPENEM], the kcat/Km in the series on Pseudomonas aeruginosa [1] is 70000 M⁻¹ s⁻¹.

Turning to “Beta-lactamase VIM-2 (Pseudomonas aeruginosa) (from UniProt Q9K2N0)”, the results for the Michaelis constant (Km) in series [2] and in series [3] were 40 µM and 60 µM, respectively. Besides, the kcat (in general, the maximal rate divided by the concentration of active sites) in series [2] came to 2.1 s⁻¹; in series [3] it was 20 s⁻¹. Besides, the kcat/Km was 53000 M⁻¹ s⁻¹ in series [4] and 330000 M⁻¹ s⁻¹ in series [5].

GENTAMICIN: the MIC (commonly the smallest concentration in the dilution series that meets the test's criterion for growth inhibition) in the series with Pseudomonas aeruginosa [6] was 0.5 µg/mL.
